Patent US20230242634A1

Amino acid sequences for entries named in this document (tags omitted). Residues count along the entry.
UniProt P01375, 77-233 limits assumed: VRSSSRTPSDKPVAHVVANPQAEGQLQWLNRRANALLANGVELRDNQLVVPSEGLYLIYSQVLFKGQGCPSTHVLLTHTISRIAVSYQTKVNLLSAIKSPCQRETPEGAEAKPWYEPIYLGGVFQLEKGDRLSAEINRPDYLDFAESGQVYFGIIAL

Target: human TNF-α (human) (UniProt P01375)
Assay: cell-based or functional assay

In the case of “Q002 (Certolizumab), the primary drug of Certolizumab (antibody)”, the IC50 (M), TNF-α-mediated killing of L929 cells (CCK-8) is reported as 1.3e-06 M.
